Results published in patent publication US11566003B2, “Isoquinolines as inhibitors of HPK1” (priority 2017, dated 2023).
Read-outs that look alike come from different tables or passages of the source.

How the values were obtained:
[1] = test system: primary human pan T cells; conditions: anti-CD3/anti-CD28 stimulation 4 hours
[2] = biological target: HPK1 (Homo sapiens (Human), UniProt Q92918, S171E/T165E); assay: biochemical
[3] = biological target: T1, HPK1 (Homo sapiens (Human), UniProt Q92918); conditions: Lantha binding assay, 2 nM HPK1, 15 nM Tracer222
[4] = biological target: T1, HPK1; assay: biochemical; conditions: HPK1 Ki (nM) L = Lanth, Lantha binding assay; 2 nM HPK1, 15 nM Tracer222

CO[C@@H]1CC[C@@H](C)c2cc(Nc3cc4cc(-c5cncc(N)c5C)c(F)c(N)c4cn3)nn2C1 (single isomer, unassigned) [Compound 266]
% IL-2 increase relative to untreated cells ([1]; assayed concentration 0.93 μM): 438%

CC[C@H]1[C@@H](C(=O)Nc2cc3cc(-c4cncc(N)c4C)c(F)c(N)c3cn2)[C@@H]1c1cnn(C)c1 (single isomer, unassigned) [Compound 279]
% IL-2 increase relative to untreated cells ([1]; assayed concentration 0.10 μM): 333%

Cc1c(N)cncc1-c1cc2cc(NC(=O)[C@H]3[C@@H]4COC[C@@H]43)ncc2c(N)c1F [Compound 158, (1R,5S,6r)-N-(8-amino-6-(5-amino-4-methylpyridin-3-yl)-7-fluoroisoquinolin-3-yl)-3-oxabicyclo[3.1.0]hexane-6-carboxamide]
% IL-2 increase relative to untreated cells ([1]; assayed concentration 0.93 μM): 343%

Cc1ccncc1-c1cc2cc(Nc3cc4n(n3)CC(=O)N(C)CC4)ncc2c(N)c1F [Compound 230, 2-((8-amino-7-fluoro-6-(4-methylpyridin-3-yl)isoquinolin-3-yl)amino)-6-methyl-5,6-dihydro-4H-pyrazolo[1,5-d][1,4]diazepin-7(8H)-one]
Ki [2]: 0.15 nM | Ki ([3]; read-out: HPK1 Ki (μm), (Lanth)): 0.15 nM

Cc1c(N)cncc1-c1cc2cc(Nc3cc4n(n3)CS(=O)(=O)N(C)C4)ncc2c(N)c1F [Compound 276, 2-((8-amino-6-(5-amino-4-methylpyridin-3-yl)-7-fluoroisoquinolin-3-yl)amino)-5-methyl-4,5-dihydro-7H-pyrazolo[5,1-d][1,2,5]thiadiazine 6,6-dioxide]
% IL-2 increase relative to untreated cells ([1]; assayed concentration 0.31 μM): 1157%

CC(C)N1CCc2cc(Nc3cc4cc(-c5cncc6c5OCCN6)c(F)c(N)c4cn3)nn2CC1=O [Compound 284, 2-[[8-amino-6-(3,4-dihydro-2H-pyrido[4,3-b][1,4]oxazin-8-yl)-7-fluoro-3-isoquinolyl]amino]-6-isopropyl-5,8-dihydro-4H-pyrazolo[1,5-d][1,4]diazepin-7-one]
% IL-2 increase relative to untreated cells ([1]; assayed concentration 0.93 μM): 529%

Cc1ccncc1-c1cc2cc(NC(=O)[C@H]3C[C@@H]3c3cn(C)nn3)ncc2c(N)c1F [Compound 354, (1S,2S)-N-(8-amino-7-fluoro-6-(4-methylpyridin-3-yl)isoquinolin-3-yl)-2-(1-methyl-1H-1,2,3-triazol-4-yl)cyclopropane-1-carboxamide]
Ki [4]: 0.84 nM

Cc1ccncc1-c1cc2cc(NC(=O)[C@@H]3C[C@H]3c3cn(C)nn3)ncc2c(N)c1F [Compound 356, (1R,2R)—N-(8-amino-7-fluoro-6-(4-methylpyridin-3-yl)isoquinolin-3-yl)-2-(1-methyl-1H-1,2,3-triazol-4-yl)cyclopropane-1-carboxamide]
Ki ([3]; read-out: HPK1 Ki (nM) L = Lanth): 2.2 nM
